Experimental data published in patent US20040266790A1 (priority 2003, published 2004).
Structures can show the parent of a compound that is named as a salt.

Settings: essentially pure form; +/-0.5 mg/ml; saturated solution 24 hours

## Cc1nc2n(c(=O)c1CCN1CCC(c3noc4cc(F)ccc34)CC1)CCCC2 [risperidone monohydrochloride, Risperidone Monohydrochloride]
  water solubility in terms of the risperidone base: around 7.5 mg/ml
